{"sequences": {"note": "Chains of the proteins cited; added tags and fusions are not shown. Lines headed by an entry give the natural chain unless they say otherwise; changes in a name come on top.", "UniProt P44514": "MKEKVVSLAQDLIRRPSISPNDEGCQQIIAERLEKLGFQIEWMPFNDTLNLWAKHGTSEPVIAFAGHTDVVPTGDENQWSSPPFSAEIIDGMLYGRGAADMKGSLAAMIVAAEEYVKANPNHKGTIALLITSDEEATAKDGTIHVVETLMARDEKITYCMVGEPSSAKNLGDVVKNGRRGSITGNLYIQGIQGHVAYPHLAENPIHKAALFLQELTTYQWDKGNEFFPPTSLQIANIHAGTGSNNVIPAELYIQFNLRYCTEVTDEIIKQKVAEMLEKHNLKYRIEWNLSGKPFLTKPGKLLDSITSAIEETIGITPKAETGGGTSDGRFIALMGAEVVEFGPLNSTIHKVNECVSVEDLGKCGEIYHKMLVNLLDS"}, "source": "paper PMC5919655", "about": "“Practical spectrophotometric assay for the dapE-encoded N-succinyl-L,L-diaminopimelic acid desuccinylase, a potential antibiotic target” (PLoS ONE, 2018)", "target": "T1, succinyl-diaminopimelate desuccinylase (HiDapE) (Haemophilus influenzae, UniProt P44514)", "T1 construct": "gene dapE; recombinant HiDapE, His6-tag cleaved with TEV protease", "assay": "ninhydrin-based assay of purified HiDapE with N6-methyl-L,L-SDAP substrate, […] nm", "type": "biochemical"}
{"molecule": "OB(O)c1ccccc1", "note": "[phenylboronic acid]", "values": [{"measurement": "IC50", "result": 316, "unit": "µM"}]}
